Where two headings read alike, the source gives them in different places.
Legend:
[1] = target: T1, GAS41 YEATS domain (GST-GAS41(1-148)) (Homo sapiens, UniProt O95619); assay: biochemical
[2] = target: T1, GAS41 YEATS domain (GST-GAS41(1-148))

Protein sequences, listed by entry. Tags and fused reporters are not part of them. Residues count along the entry.
UniProt O95619, 1-148: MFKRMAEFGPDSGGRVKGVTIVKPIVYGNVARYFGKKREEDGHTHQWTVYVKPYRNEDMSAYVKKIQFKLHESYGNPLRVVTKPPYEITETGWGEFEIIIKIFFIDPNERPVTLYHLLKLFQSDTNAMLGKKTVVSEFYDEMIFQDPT

Row | SMILES | IC50 [1] | IC50 [2]
1 | Nc1cccc(C2CN(C(=O)c3ccc(NC(=O)[C@@H]4CCCN4)s3)C2)c1 [Compound 77] | 10 to 50 µM | 
2 | O=C(Nc1ccc(C(=O)N2Cc3ccccc3C2)s1)[C@@H]1CCCN1 [Compound 78] | 10 to 50 µM | 
3 | O=C(c1cc2c(s1)N(C(=O)[C@@H]1CCCN1)CC2)N1CC(c2nccs2)C1 [Compound 79] | 10 to 50 µM | 
4 | O=C(c1cc2c(s1)N(C(=O)[C@@H]1CCCN1)CCC2)N1CC(c2nccs2)C1 [Compound 80] | 10 to 50 µM | 
5 | Cn1cc(C2CN(C(=O)c3ccc(NC(=O)[C@@H]4CCCN4)s3)C2)c2cc(N)ccc21 [Compound 81] | 2 to 10 µM | 
6 | CCN(CC)c1ccc2scc(C3CN(C(=O)c4ccc(NC(=O)[C@@H]5CCCN5)s4)C3)c2c1 [Compound 82] | 10 to 50 µM | 
7 | O=C(Nc1ccc(C(=O)N2CC(=Cc3ccccc3)C2)s1)[C@@H]1CCCN1 [Compound 83] | > 50 µM | 
8 | O=C(Nc1cnc(C(=O)N2CC(c3nccs3)C2)s1)[C@@H]1CCCN1 [Compound 84] | 10 to 50 µM | 
9 | O=C(Nc1ccc(C(=O)N2CC(c3nccs3)C2)s1)[C@@H]1CCCN1 [Compound 85, (S)—N-(5-(3-(thiazol-2-yl)azetidine-1-carbonyl)thiophen-2-yl)pyrrolidine-2-carboxamide] | 2 to 10 µM | 
10 | O=C(Nc1ccc(C(=O)N2CC(c3ccncc3)C2)s1)[C@@H]1CCCN1 [Compound 86] | 2 to 10 µM | 
11 | O=C(Nc1ccc(C(=O)N2CC(Oc3ccnc4ccc(Cl)cc34)C2)s1)[C@@H]1CCCN1 [Compound 87] | 2 to 10 µM | 
12 | O=C(Nc1ccc(C(=O)N2CC(c3nc4ccccc4s3)C2)s1)[C@@H]1CCCN1 [Compound 88] | 2 to 10 µM | 
13 | O=C(Nc1ccc(C(=O)N2CC(c3nc4ccc(Cl)cc4s3)C2)s1)[C@@H]1CCCN1 [Compound 89] | 2 to 10 µM | 
14 | O=C(Nc1ccc(C(=O)N2CC(Cc3ccnc4ccc(Cl)cc34)C2)s1)[C@@H]1CCCN1 [Compound 91] | 2 to 10 µM | 
15 | COc1cccc(-c2cnc(C3CN(C(=O)c4ccc(NC(=O)[C@@H]5CCCN5)s4)C3)s2)c1 [Compound 95] | 2 to 10 µM | 
16 | O=C(Nc1ccc(C(=O)N2CC(c3ncc(-c4ccncc4)s3)C2)s1)[C@@H]1CCCN1 [Compound 96] | < 2 µM | 
17 | O=C(Nc1ccc(C(=O)N2CC(c3ncc(-c4ccccc4Cl)s3)C2)s1)[C@@H]1CCCN1 [Compound 97] | 2 to 10 µM | 
18 | CCCO[C@H]1CN[C@H](C(=O)Nc2ccc(C(=O)N3CC(c4nc5ccccc5s4)C3)s2)C1 [Compound 98] | < 2 µM | 
19 | O=C(Nc1ccc(C(=O)N2CC(N3CCc4ccccc43)C2)s1)[C@@H]1CCCN1 [Compound 99] | 2 to 10 µM | 
20 | CN(C(=O)[C@@H]1CCCN1)c1ccc(C(=O)N2CC(c3nccs3)C2)s1 [Compound 100] | 2 to 10 µM | 
21 | COC1CC2(C1)CN(C(=O)c1ccc(NC(=O)[C@@H]3CCCN3)s1)C2 [Compound 102] | 10 to 50 µM | 
22 | Nc1ccc2scc(C3CN(C(=O)c4ccc(NC(=O)[C@@H]5CCCN5)s4)C3)c2c1 [Compound 103] | 10 to 50 µM | 
23 | CCN(C(=O)[C@@H]1CCCN1)c1ccc(C(=O)N2CC(c3ncc(-c4ccccc4)s3)C2)s1 [Compound 104] | 10 to 50 µM | 
24 | Cc1nc(C2CN(C(=O)c3ccc(NC(=O)[C@@H]4CCCN4)s3)C2)sc1-c1ccncc1 [Compound 106] | < 2 µM | 
25 | Nc1ccccc1-c1cnc(C2CN(C(=O)c3ccc(NC(=O)[C@@H]4CCCN4)s3)C2)s1 [Compound 107] | < 2 µM | 
26 | O=C(Nc1ccc(C(=O)N2CC(c3ncc(-c4nccs4)s3)C2)s1)[C@@H]1CCCN1 [Compound 108] | 2 to 10 µM | 
27 | O=C(Nc1ccc(C(=O)N2CC(c3ncc(-c4cccc5[nH]ccc45)s3)C2)s1)[C@@H]1CCCN1 [Compound 109] | < 2 µM | 

Row | SMILES | IC50 [1] | IC50 [2]
28 | O=C(Nc1ccc(C(=O)N2CC(c3ncc(-c4ccn[nH]4)s3)C2)s1)[C@@H]1CCCN1 [Compound 110] | < 2 µM | 
29 | O=C(Nc1ccc(C(=O)N2CC(c3ncc(-c4cnc[nH]4)s3)C2)s1)[C@@H]1CCCN1 [Compound 111] | < 2 µM | 
30 | O=C(Nc1ccc(C(=O)N2CC(c3ncc(C4=CCNCC4)s3)C2)s1)[C@@H]1CCCN1 [Compound 112] | 2 to 10 µM | 
31 | O=C(Nc1ccc(C(=O)N2CC3(CC(Oc4nccs4)C3)C2)s1)[C@@H]1CCCN1 [Compound 115] | 10 to 50 µM | 
32 | O=C(Nc1ccc(C(=O)N2CC(c3ncc(-c4cccc5c4ccn5CC4CNC4)s3)C2)s1)[C@@H]1CCCN1 [Compound 116] | < 2 µM | 
33 | O=C(Nc1ccc(C(=O)N2CC(c3ncc(-c4cccc5[nH]cnc45)s3)C2)s1)[C@@H]1CCCN1 [Compound 117] | 2 to 10 µM | 
34 | O=C(Nc1ccc(C(=O)N2CC3(CC(Oc4ccccc4)C3)C2)s1)[C@@H]1CCCN1 [Compound 120] | 2 to 10 µM | 
35 | O=C(Nc1ccc(C(=O)N2CC3(CC(c4nccs4)C3)C2)s1)[C@@H]1CCCN1 [Compound 121] | 2 to 10 µM | 
36 | O=C(Nc1ccc(C(=O)N2CC3(CC(c4ccncc4)C3)C2)s1)[C@@H]1CCCN1 [Compound 122] | 2 to 10 µM | 
37 | O=C(Nc1ccc(C(=O)N2CC(c3ncc(-c4cccc(C5CCCN5)c4)s3)C2)s1)[C@@H]1CCCN1 (stereo partly drawn) [Compound 127] | 2 to 10 µM | 
38 | O=C(Nc1ccc(C(=O)N2CC(c3ncc(-c4cccc(C5CCNCC5)c4)s3)C2)s1)[C@@H]1CCCN1 [Compound 128] | 2 to 10 µM | 
39 | CN1CCN(Cc2cccc(-c3cnc(C4CN(C(=O)c5ccc(NC(=O)[C@@H]6CCCN6)s5)C4)s3)c2)CC1 [Compound 129] | < 2 µM | 
40 | O=C(NCc1ccc(-c2cnc(C3CN(C(=O)c4ccc(NC(=O)[C@@H]5CCCN5)s4)C3)s2)cc1)c1ccccc1 [Compound 130] | < 2 µM | 
41 | O=C(NCc1ccc(-c2cnc(C3CN(C(=O)c4ccc(NC(=O)[C@@H]5CCCN5)s4)C3)s2)cc1)C1CCCC1 [Compound 131] | < 2 µM | 
42 | CC(C)(C)c1ccc(C(=O)N2CCCC2)s1 [Compound 134, (5-(tert-butyl)thiophen-2-yl)(pyrrolidin-1-yl)methanone] | > 50 µM | 210 µM
43 | O=C(Nc1ccc(C(=O)N2CCCC2)s1)[C@H]1NCC[C@@H]1O [Compound 208] | 10 to 50 µM | 
44 | O=C(Nc1ccc(C(=O)N2CC(c3ncc(-c4ccc(Cn5cccn5)cc4)s3)C2)s1)[C@@H]1CCCN1 [Compound 234] | < 2 µM | 
45 | CC(=O)NCc1ccc(-c2cnc(C3CN(C(=O)c4ccc(NC(=O)[C@@H]5CCCN5)s4)C3)s2)cc1C1CNC1 [Compound 236] | < 2 µM | 
46 | CCC(CC)C(=O)N(C)Cc1ccc(-c2cnc(C3CN(C(=O)c4ccc(NC(=O)[C@@H]5CCCN5)s4)C3)s2)cc1 [Compound 238] | 2 to 10 µM | 
47 | O=C(c1ccc(N2CCC3(CCCN3)C2=O)s1)N1CC(c2ncc(-c3ccccc3)s2)C1 (stereo not drawn) [Compound 239] | 2 to 10 µM | 
48 | CC(=O)NCc1cccc(-c2cnc(C3CN(C(=O)c4ccc(NC(=O)[C@@H]5CCCN5)s4)C3)s2)c1 [Compound 241] | < 2 µM | 
49 | CC(=O)NCc1ccc(-c2cnc(C3CN(C(=O)c4ccc(NC(=O)[C@@H]5CCCN5)s4)C3)s2)cc1C1CN(C)C1 [Compound 242] | < 2 µM | 
50 | CC(=O)NCc1ccc(-c2cnc(C3CN(C(=O)c4ccc(NC(=O)[C@@H]5CCCN5)s4)C3)s2)cc1C1CN(C(C)C)C1 [Compound 243] | < 2 µM | 
51 | CC(=O)NCc1ccc(-c2cnc(C3CN(C(=O)c4ccc(N5CCC6(CCCN6)C5=O)s4)C3)s2)cc1 (stereo not drawn) [Compound 244] | < 2 µM | 
52 | CC(=O)NCc1ccc(-c2cnc(C3CN(C(=O)c4ccc(NC(=O)[C@@H]5CCCN5)s4)C3)s2)cc1C1CCNCC1 [Compound 245] | < 2 µM | 
53 | CC(=O)NCc1ccc(-c2cnc(C3CN(C(=O)c4ccc(NC(=O)[C@@H]5CCCN5)s4)C3)s2)cc1CC1CNC1 [Compound 246] | < 2 µM | 

Source: patent publication US11858925B2, “GAS41 inhibitors and methods of use thereof” (The Regents of the University of Michigan, priority 2020, dated 2024)
